## Cyclic peptide permeability, from CycPeptMPDB

Collected by the curators of CycPeptMPDB (Li et al. 2023) from Townsend et al. 2020, doi:10.26434/chemrxiv.13335941.v1.

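The data file gives no further conditions (lipid, pH, time, direction or concentration), and values from different papers need not be comparable. The list need not hold all peptides of the study. Peptides that the database sets to -10, its floor, are left out.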

PAMPA measures passive passage through an artificial lipid membrane.
Permeability is in 10^-6 cm/s, converted from the database's log10 values; higher is more permeable.

structure (SMILES)	PAMPA (10^-6 cm/s)
CC(C)C[C@H]1NC(=O)[C@H](CC(C)C)N(C)C(=O)[C@@H](C)NC(=O)[C@@H]2CCCN2C(=O)[C@H](Cc2ccccc2)NC(=O)CN(Cc2ccccc2)C(=O)[C@H]2CCCN2C1=O	1.7
CCCN1CC(=O)N[C@H](CC(C)C)C(=O)N(C)[C@H](CC(C)C)C(=O)N2CCC[C@@H]2C(=O)N(Cc2ccccc2)CC(=O)N[C@@H](Cc2ccccc2)C(=O)N2CCC[C@@H]2C1=O	6.5
CC(C)C[C@@H]1NC(=O)[C@H]2CCCN2C(=O)[C@@H](CC(C)C)NC(=O)[C@@H](CC(C)C)N(C)C(=O)[C@H](C)N(C)C(=O)[C@H](Cc2ccccc2)NC1=O	2.6
CC(C)C[C@H]1NC(=O)[C@@H]2CCCN2C(=O)[C@H](CC(C)C)N(C)C(=O)[C@@H](CC(C)C)NC(=O)C[C@H](Cc2ccccc2)NC(=O)[C@H](Cc2ccccc2)NC1=O	3.2
CC(C)C[C@@H]1C(=O)N2CCC[C@H]2C(=O)N(C)[C@H](CC(C)C)C(=O)N[C@@H](Cc2ccccc2)C(=O)N2CCC[C@@H]2C(=O)N(C)[C@@H](C)C(=O)N(C)[C@H](CC(C)C)C(=O)N1C	4.1
CC(C)C[C@@H]1C(=O)N[C@@H](Cc2ccccc2)C(=O)N2CCC[C@@H]2C(=O)N[C@@H](C)C(=O)N(Cc2ccccc2)CC(=O)N[C@@H](Cc2ccccc2)CC(=O)N2CCC[C@@H]2C(=O)N1C	1.4
CC(C)C[C@H]1C(=O)N[C@@H](Cc2ccccc2)C(=O)N2CCC[C@@H]2C(=O)N(C)[C@@H](C)C(=O)N(Cc2ccccc2)CC(=O)N[C@@H](Cc2ccccc2)CC(=O)N2CCC[C@H]2C(=O)N1C	2.6
CCCN1CC(=O)N[C@H](CC(C)C)C(=O)N(C)[C@@H](CC(C)C)C(=O)N2CCC[C@H]2C(=O)N[C@@H](CC(C)C)C(=O)N[C@@H](Cc2ccccc2)C(=O)N2CCC[C@@H]2C1=O	2.8
CC(C)C[C@@H]1NC(=O)[C@H]2CCCN2C(=O)[C@H](CC(C)C)NC(=O)[C@H](CC(C)C)N(C)C(=O)[C@H](C)NC(=O)[C@H](Cc2ccccc2)NC1=O	0.35
CC(C)C[C@H]1NC(=O)CN(Cc2ccccc2)C(=O)[C@H](C)N(C)C(=O)[C@@H]2CCCN2C(=O)[C@H](Cc2ccccc2)NC(=O)[C@H](CC(C)C)N(C)C(=O)[C@H]2CCCN2C1=O	4.8
CC(C)C[C@@H]1C(=O)N(C)[C@H](CC(C)C)C(=O)N2CCC[C@H]2C(=O)N[C@H](CC(C)C)C(=O)N[C@@H](Cc2ccccc2)C(=O)N[C@@H](C)C(=O)N1C	3.1
CC(C)C[C@@H]1NC(=O)[C@@H](C)NC(=O)[C@H](Cc2ccccc2)NC(=O)[C@@H](CC(C)C)NC(=O)[C@@H]2CCCN2C(=O)[C@@H](CC(C)C)N(C)C1=O	1.4

A selection of 2 entries from above:

| structure (SMILES) | PAMPA (10^-6 cm/s) |
|---|---|
| CC(C)C[C@H]1NC(=O)CN(Cc2ccccc2)C(=O)[C@H](C)N(C)C(=O)[C@@H]2CCCN2C(=O)[C@H](Cc2ccccc2)NC(=O)[C@H](CC(C)C)N(C)C(=O)[C@H]2CCCN2C1=O | 4.8 |
| CC(C)C[C@@H]1NC(=O)[C@H]2CCCN2C(=O)[C@H](CC(C)C)NC(=O)[C@H](CC(C)C)N(C)C(=O)[C@H](C)NC(=O)[C@H](Cc2ccccc2)NC1=O | 0.35 |